# Patent publication US20180303853A1, “COMPOSITIONS AND METHODS FOR TREATING BACTERIAL INFECTIONS USING CEFTAROLINE” (priority 2017, published 2018)
# Columns and labels:
# [1] = system: community-acquired pneumonia (CAP); test: Example 4 Phase 3 study, ceftaroline vs ceftriaxone in CAP, efficacy; type: in vivo, human; conditions: Example 4, CE population
# [2] = system: community-acquired pneumonia (CAP); test: Example 5 Phase 3 study, ceftaroline vs ceftriaxone with adjunctive clarithromycin in CAP, efficacy; type: in vivo, human
smiles,measurement,setting,value
"CO/N=C(\C(=O)N[C@@H]1C(=O)N2C(C(=O)O)=C(CSc3nc(=O)c(=O)[nH]n3C)CS[C@H]12)c1csc(N)n1 [Ceftriaxone, ceftriaxone, reference compound]",Per-subject Clinical Cure Rate at the EOT Visit,[1],172 (80.0) %
same,Per-subject Clinical Cure Rate at the EOT Visit,"[2]; Example 5, CE population",188 (80.3) %
same,Per-subject Clinical Cure Rate at the EOT Visit,"[2]; Example 5, MITTE population",242 (80.7) %
